pEC50: −log10 of the molar value.
How the values were obtained:
rCTR = target: T1, rCTR (Rattus norvegicus, UniProt P32214); assay: Species-specific cAMP assay, rCTR
T1 sequence (P32214 25-479 isoform P32214-2 limits assumed): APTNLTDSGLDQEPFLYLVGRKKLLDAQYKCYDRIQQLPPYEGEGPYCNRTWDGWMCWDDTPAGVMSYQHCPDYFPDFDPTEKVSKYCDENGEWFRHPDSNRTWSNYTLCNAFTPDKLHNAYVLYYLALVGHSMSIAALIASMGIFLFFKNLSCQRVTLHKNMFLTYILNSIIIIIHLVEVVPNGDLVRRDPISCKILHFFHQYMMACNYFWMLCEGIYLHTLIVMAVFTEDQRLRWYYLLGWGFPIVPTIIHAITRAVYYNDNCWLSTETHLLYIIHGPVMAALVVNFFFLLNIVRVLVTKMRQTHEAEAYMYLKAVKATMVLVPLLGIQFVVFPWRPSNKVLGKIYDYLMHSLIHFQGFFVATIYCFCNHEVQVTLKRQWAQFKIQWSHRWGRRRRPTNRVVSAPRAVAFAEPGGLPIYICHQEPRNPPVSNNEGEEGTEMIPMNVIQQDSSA

By UniProt entry, the sequences of proteins in these tests, tags left out. Residues count along the entry.
UniProt O60894, 27-148 partner: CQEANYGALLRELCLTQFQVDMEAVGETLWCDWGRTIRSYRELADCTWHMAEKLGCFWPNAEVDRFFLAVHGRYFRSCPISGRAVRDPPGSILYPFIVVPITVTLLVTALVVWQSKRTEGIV

rAMY1R [1] = target: T2, rAMY1R (Rattus norvegicus, UniProt P32214+Q9JJ74); assay: Species-specific cAMP assay, rAMY1R
T2 sequence (P32214 25-516): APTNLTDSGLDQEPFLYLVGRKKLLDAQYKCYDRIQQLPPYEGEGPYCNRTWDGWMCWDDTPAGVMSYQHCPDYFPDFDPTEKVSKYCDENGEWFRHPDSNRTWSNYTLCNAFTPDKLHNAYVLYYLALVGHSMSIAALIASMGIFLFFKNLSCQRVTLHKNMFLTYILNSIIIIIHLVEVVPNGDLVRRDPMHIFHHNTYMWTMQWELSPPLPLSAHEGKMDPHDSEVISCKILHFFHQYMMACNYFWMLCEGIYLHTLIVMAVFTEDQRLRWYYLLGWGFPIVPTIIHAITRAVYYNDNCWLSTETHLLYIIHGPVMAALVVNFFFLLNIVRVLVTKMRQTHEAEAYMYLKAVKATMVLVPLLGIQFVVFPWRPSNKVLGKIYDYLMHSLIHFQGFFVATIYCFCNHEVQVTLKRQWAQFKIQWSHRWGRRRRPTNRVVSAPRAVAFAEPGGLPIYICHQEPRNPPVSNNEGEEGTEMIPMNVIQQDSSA
T2 sequence (Q9JJ74 27-148 partner): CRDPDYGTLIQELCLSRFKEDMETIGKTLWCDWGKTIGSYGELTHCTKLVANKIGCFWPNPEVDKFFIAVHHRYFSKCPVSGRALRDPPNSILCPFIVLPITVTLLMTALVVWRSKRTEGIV

hAMY3R [2] = target: T3, hAMY3R (Homo sapiens, UniProt O60896+P30988); assay: cAMP-responsive element luciferase reporter assay, human AMY3R; format: cell-based; design: expressed in transfected cells
T3 sequence (P30988 25-474): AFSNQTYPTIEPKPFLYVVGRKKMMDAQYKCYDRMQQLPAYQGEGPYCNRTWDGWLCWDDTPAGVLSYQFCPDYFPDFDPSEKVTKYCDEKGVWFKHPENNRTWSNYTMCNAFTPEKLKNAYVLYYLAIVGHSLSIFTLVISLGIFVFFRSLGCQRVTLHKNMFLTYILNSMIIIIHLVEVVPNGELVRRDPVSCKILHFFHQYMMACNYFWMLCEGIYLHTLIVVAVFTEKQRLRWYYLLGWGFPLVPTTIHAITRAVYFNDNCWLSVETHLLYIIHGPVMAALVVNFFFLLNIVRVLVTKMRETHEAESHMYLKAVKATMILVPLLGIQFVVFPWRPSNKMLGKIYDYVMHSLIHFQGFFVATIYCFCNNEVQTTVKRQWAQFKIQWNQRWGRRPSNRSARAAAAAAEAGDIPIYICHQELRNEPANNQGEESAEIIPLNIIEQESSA
T3 sequence (O60896 24-148 partner): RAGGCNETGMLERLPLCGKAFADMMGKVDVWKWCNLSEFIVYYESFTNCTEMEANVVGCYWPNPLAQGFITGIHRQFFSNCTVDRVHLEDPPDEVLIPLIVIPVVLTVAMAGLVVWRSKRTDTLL

rAMY3R [3] = target: T4, rAMY3R (Rattus norvegicus, UniProt P32214+Q9JJ73); assay: scintillation proximity binding assay, rAMY3R membranes; design: expressed in transfected cells; host or cells: BHK tk-ts 13, transient co-transfection (FuGENE 6); settings: ratio of binding IC50 values
T4 sequence (P32214 25-479 isoform P32214-2 limits assumed): T1 sequence (P32214 25-479 isoform P32214-2 limits assumed)
T4 sequence (Q9JJ73 23-147 partner): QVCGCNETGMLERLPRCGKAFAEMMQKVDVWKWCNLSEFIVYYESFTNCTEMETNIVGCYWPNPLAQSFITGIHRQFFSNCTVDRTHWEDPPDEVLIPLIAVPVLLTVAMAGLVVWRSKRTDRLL
Method: (§1) The apparent binding affinities were determined using a scintillation proximity assay with beads from PerkinElmer and cell membranes containing the AMY3R or CTRs. […] Membranes were harvested and membranes were prepared and kept at −80 °C until use. The assay was performed in a 384-well Optiplate (PerkinElmer). Membranes were mixed with scintillation proximity assay beads in a 1:1 ratio. […] Samples were analyzed on a TopCounter (Packard). The IC50 values were calculated using GraphPad Prism. See Supporting Information S7: SAR Screening Assay Methods (Binding Assays (Human and Rat)) for more information.
(§2) Binding Assays (Human and Rat). Brief descriptions of the methods used to determine binding affinities for SAR analysis are described below. Curves and IC50 values were plotted and calculated in GraphPad Prism using nonlinear regression (one site binding competition analysis), with pIC50 values […]
(§3) containing 20 mM Na-HEPES and 0.1 mM EDTA (pH 7.4, buffer 2). The resulting pellet was re-suspended in buffer 2 and protein concentration was measured (BCA protein assay, Pierce). […]
(§4) prior to centrifugation (1500 rpm, 10 min). Samples were analyzed on TopCounter (Packard). […]
(§5) 7.4, buffer 2). The resulting pellet was re-suspended in buffer 2 and protein concentration was measured (BCA protein assay, Pierce). […]

hAMY1R [4] = target: T5, hAMY1R (Homo sapiens, UniProt O60894+P30988); assay: Whole-cell competition binding, hAMY1R; design: expressed in transfected cells; host or cells: BHK tk-ts 13, transient co-transfection (FuGENE 6); settings: IC50 for the CTR divided by that of the AMYR, human receptors
rAMY3R [5] = target: T4, rAMY3R; assay: Species-specific cAMP assay, rAMY3R
rat AMY3R = target: T6, rat AMY3R (Rattus norvegicus, UniProt P32214+Q9JJ73); assay: cAMP FlashPlate assay, rat AMY3R; format: cell-based; settings: ratio of cAMP EC50 values
T6 construct: expressed in transfected cells; host or cells: BHK tk-ts 13, transient co-transfection (FuGENE 6)
T6 sequence (P32214 25-479 isoform P32214-2 limits assumed): T1 sequence (P32214 25-479 isoform P32214-2 limits assumed)
T6 sequence (Q9JJ73 23-147 partner): T4 sequence (Q9JJ73 23-147 partner)

rAMY1R [6] = target: T2, rAMY1R; assay: Whole-cell competition binding, rAMY1R; design: expressed in transfected cells; host or cells: BHK tk-ts 13 cells, transient, FuGENE 6; settings: IC50 for the CTR divided by that of the AMYR, rat receptors
hAMY3R [7] = target: T3, hAMY3R; assay: Species-specific cAMP assay, hAMY3R
hCTR = target: T7, hCTR (Homo sapiens, UniProt P30988); assay: Species-specific cAMP assay, hCTR
T7 sequence (P30988 25-474): T3 sequence (P30988 25-474)

hAMY3R [8] = target: T3, hAMY3R; assay: scintillation proximity binding assay, hAMY3R membranes; design: expressed in transfected cells; host or cells: BHK tk-ts 13, transient co-transfection; membranes for the SPA, whole cells for the species-specific assays; settings: ratio of binding IC50 values
Method: as §1, §2, §3, §4, §5

hAMY3R [9] = target: T3, hAMY3R; assay: Whole-cell competition binding, hAMY3R; design: expressed in transfected cells; host or cells: BHK tk-ts 13, transient co-transfection; whole cells for the species-specific assays; settings: IC50 for the CTR divided by that of the AMYR, human receptors
rAMY3R [10] = target: T4, rAMY3R; assay: Whole-cell competition binding, rAMY3R; design: expressed in transfected cells; host or cells: BHK tk-ts 13, transient co-transfection (FuGENE 6); settings: IC50 for the CTR divided by that of the AMYR, rat receptors
hAMY1R [11] = target: T5, hAMY1R; assay: Species-specific cAMP assay, hAMY1R
[12] = ratio of cAMP EC50 values, rat receptors
[13] = ratio of cAMP EC50 values, human receptors

## CC[C@H](C)[C@H](NC(=O)[C@@H]1CCCN1C(=O)CNC(=O)[C@H](Cc1ccccc1)NC(=O)[C@H](CC(N)=O)NC(=O)[C@H](CC(N)=O)NC(=O)[C@H](CO)NC(=O)[C@H](CO)NC(=O)[C@H](Cc1c[nH]cn1)NC(=O)[C@@H](NC(=O)[C@H](CC(C)C)NC(=O)[C@H](Cc1ccccc1)NC(=O)[C@H](CC(N)=O)NC(=O)[C@H](C)NC(=O)[C@H](CC(C)C)NC(=O)[C@H](CCCNC(=N)N)NC(=O)[C@H](CCC(N)=O)NC(=O)[C@@H](NC(=O)[C@H](C)NC(=O)[C@@H]1CSSC[C@H](NC(=O)[C@@H](N)CCCCN)C(=O)N[C@@H](CC(N)=O)C(=O)N[C@@H]([C@@H](C)O)C(=O)N[C@@H](C)C(=O)N[C@@H]([C@@H](C)O)C(=O)N1)[C@@H](C)O)C(C)C)C(=O)N[C@@H](CC(C)C)C(=O)N1CCC[C@H]1C(=O)N1CCC[C@H]1C(=O)N[C@H](C(=O)N[C@@H](CC(N)=O)C(=O)N[C@H](C(=O)NCC(=O)N[C@@H](CO)C(=O)N[C@@H](CC(N)=O)C(=O)N[C@H](C(=O)N[C@@H](Cc1ccc(O)cc1)C(N)=O)[C@@H](C)O)C(C)C)[C@@H](C)O [pramlintide, reference compound]
rCTR
  pEC50: 9.96
rAMY1R [1]
  pEC50: 11.34
rAMY1R [1]; [12]
  Ratio CTR/AMY1R (rat, functional): 24
hAMY3R [2]; luciferase (human receptor assay), Tables S12 and S14, read-out: hAMY3R pEC50 (converted)
  EC50: 0.0049 nM
hAMY3R [2]; ratio of luciferase EC50 values
  ratio hCTR/hAMY3R: 14
rAMY3R [3]
  ratio rCTR/rAMY3R: 48
hAMY1R [4]
  Ratio CTR/AMY1R (human, binding): 117
rAMY3R [5]
  pEC50: 11.47
rAMY3R [5]; [12]
  Ratio CTR/AMY3R (rat, functional): 32
Rat AMY3R
  ratio rCTR/rAMY3R: 455
rAMY1R [6]
  Ratio CTR/AMY1R (rat, binding): 871
hAMY3R [7]
  pEC50: 10.62
hAMY3R [7]; [13]
  Ratio CTR/AMY3R (human, functional): 16
hCTR
  pEC50: 9.43
hAMY3R [8]
  ratio hCTR/hAMY3R: 13
hAMY3R [9]
  Ratio CTR/AMY3R (human, binding): 134
rAMY3R [10]
  Ratio CTR/AMY3R (rat, binding): 173
hAMY1R [11]
  pEC50: 10.12
hAMY1R [11]; [13]
  Ratio CTR/AMY1R (human, functional): 5

From publication PMC11284788, “NN1213 – A Potent, Long-Acting, and Selective Analog of Human Amylin” (Journal of Medicinal Chemistry, 2024)
